# Experimental data published in ChEMBL document CHEMBL1148673, “Peptidomimetic C5a receptor antagonists with hydrophobic substitutions at the C-terminus: increased receptor specificity and in vivo activity” (Bioorg Med Chem Lett, 2006).
# Chains of the proteins cited; added tags and fusions are not shown. Lines headed by an entry give the natural chain unless they say otherwise; changes in a name come on top.
# UniProt P32245, whole entry: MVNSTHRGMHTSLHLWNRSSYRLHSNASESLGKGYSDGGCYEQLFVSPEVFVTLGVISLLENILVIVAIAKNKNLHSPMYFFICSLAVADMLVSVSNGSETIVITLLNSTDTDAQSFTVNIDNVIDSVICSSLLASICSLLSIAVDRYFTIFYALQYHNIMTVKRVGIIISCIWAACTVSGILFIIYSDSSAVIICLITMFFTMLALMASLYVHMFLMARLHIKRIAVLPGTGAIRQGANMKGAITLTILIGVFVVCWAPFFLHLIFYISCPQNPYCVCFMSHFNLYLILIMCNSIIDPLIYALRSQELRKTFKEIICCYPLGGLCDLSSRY
# UniProt P21452, whole entry: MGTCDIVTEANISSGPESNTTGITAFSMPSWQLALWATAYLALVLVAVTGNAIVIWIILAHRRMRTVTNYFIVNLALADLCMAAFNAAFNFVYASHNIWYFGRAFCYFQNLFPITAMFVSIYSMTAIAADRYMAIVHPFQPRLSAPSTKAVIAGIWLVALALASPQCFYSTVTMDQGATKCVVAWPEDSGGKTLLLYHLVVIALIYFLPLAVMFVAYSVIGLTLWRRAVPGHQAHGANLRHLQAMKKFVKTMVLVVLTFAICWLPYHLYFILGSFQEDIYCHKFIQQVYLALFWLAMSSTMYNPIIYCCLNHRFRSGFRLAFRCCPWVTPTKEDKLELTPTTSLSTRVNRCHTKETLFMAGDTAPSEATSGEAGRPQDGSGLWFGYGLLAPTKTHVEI
# UniProt P41146: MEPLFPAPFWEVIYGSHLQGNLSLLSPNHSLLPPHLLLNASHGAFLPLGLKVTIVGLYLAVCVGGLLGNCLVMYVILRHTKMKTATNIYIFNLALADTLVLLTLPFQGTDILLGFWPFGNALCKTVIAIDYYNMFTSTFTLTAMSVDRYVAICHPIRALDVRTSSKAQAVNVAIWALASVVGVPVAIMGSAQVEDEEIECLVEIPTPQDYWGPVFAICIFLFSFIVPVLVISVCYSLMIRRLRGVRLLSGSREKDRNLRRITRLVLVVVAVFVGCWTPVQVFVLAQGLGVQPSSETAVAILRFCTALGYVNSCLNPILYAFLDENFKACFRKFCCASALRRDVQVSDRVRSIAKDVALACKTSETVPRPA
# UniProt P37288, whole entry: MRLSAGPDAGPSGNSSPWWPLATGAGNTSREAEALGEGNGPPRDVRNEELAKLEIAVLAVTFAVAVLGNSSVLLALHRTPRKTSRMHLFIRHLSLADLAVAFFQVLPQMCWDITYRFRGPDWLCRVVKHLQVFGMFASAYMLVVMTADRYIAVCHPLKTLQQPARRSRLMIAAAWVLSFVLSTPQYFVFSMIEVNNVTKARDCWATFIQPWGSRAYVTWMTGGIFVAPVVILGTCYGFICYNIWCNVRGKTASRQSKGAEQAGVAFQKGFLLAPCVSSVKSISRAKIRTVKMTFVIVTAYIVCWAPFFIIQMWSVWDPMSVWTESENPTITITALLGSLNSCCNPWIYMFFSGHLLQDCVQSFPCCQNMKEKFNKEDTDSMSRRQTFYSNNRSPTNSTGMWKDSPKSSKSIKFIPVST
# What was measured:
# [1] = biological target: Melanocortin receptor 4 (Homo sapiens, UniProt P32245); assay: Binding affinity to MC4 receptor
# [2] = biological target: Substance-K receptor (Homo sapiens, UniProt P21452); assay: Binding affinity to NK2 receptor
# [3] = biological target: Nociceptin receptor (Homo sapiens, UniProt P41146); assay: Binding affinity to ORL1 receptor
# [4] = biological target: Vasopressin V1a receptor (Homo sapiens, UniProt P37288); assay: Binding affinity to V1a receptor
smiles,measurement,setting,value
CC(=O)N[C@@H](Cc1ccccc1)C(=O)N[C@H]1CCCNC(=O)[C@H](CCCNC(=N)N)NC(=O)[C@H](Cc2c[nH]c3ccccc23)NC(=O)[C@@H](CC2CCCCC2)NC(=O)[C@@H]2CCCN2C1=O,IC50,[1],0.4 µM
same,IC50,[2],0.087 µM
same,IC50,[3],2.2 µM
same,IC50,[4],0.74 µM
